Protein sequences, listed by entry. Tags and fused reporters are not part of them. Lines headed by an entry give the natural chain unless they say otherwise; changes in a name come on top. Chains listed by the source or under a name are the forms on record and can include a tag or linker. Residues count along the entry.
UniProt P00533, 25-1210 limits assumed: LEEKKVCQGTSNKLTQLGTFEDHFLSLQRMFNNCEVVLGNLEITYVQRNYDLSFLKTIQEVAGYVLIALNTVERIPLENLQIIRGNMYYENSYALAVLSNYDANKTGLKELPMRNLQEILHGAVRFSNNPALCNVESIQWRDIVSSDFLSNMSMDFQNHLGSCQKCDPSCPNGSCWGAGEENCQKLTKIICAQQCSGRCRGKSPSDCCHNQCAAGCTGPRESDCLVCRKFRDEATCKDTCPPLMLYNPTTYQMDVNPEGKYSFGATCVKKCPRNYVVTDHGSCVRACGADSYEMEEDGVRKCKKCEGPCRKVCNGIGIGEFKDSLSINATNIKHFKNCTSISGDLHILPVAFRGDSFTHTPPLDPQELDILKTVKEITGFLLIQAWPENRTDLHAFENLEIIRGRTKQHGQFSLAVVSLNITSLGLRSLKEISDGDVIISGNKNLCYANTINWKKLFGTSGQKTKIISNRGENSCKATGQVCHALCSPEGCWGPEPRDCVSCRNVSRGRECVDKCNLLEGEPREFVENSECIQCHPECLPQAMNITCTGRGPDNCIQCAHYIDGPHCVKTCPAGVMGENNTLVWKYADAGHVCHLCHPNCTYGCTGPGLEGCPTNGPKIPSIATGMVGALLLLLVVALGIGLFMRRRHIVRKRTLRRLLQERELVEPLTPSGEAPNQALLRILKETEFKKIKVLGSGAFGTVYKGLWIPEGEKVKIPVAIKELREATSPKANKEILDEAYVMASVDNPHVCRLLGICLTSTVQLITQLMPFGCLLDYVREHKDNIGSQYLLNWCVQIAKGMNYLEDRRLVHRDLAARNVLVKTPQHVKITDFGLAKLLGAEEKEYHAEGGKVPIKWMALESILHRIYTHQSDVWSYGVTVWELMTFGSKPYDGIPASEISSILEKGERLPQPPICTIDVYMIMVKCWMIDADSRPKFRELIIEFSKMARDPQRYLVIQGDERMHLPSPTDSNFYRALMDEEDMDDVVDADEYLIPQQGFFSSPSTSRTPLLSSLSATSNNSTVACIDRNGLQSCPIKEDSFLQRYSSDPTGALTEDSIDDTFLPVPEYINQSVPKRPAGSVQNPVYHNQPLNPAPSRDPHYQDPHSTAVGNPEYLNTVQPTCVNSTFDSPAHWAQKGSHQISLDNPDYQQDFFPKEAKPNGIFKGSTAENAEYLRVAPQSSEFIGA
UniProt P00533, 25-1210 T790M/L858R limits assumed: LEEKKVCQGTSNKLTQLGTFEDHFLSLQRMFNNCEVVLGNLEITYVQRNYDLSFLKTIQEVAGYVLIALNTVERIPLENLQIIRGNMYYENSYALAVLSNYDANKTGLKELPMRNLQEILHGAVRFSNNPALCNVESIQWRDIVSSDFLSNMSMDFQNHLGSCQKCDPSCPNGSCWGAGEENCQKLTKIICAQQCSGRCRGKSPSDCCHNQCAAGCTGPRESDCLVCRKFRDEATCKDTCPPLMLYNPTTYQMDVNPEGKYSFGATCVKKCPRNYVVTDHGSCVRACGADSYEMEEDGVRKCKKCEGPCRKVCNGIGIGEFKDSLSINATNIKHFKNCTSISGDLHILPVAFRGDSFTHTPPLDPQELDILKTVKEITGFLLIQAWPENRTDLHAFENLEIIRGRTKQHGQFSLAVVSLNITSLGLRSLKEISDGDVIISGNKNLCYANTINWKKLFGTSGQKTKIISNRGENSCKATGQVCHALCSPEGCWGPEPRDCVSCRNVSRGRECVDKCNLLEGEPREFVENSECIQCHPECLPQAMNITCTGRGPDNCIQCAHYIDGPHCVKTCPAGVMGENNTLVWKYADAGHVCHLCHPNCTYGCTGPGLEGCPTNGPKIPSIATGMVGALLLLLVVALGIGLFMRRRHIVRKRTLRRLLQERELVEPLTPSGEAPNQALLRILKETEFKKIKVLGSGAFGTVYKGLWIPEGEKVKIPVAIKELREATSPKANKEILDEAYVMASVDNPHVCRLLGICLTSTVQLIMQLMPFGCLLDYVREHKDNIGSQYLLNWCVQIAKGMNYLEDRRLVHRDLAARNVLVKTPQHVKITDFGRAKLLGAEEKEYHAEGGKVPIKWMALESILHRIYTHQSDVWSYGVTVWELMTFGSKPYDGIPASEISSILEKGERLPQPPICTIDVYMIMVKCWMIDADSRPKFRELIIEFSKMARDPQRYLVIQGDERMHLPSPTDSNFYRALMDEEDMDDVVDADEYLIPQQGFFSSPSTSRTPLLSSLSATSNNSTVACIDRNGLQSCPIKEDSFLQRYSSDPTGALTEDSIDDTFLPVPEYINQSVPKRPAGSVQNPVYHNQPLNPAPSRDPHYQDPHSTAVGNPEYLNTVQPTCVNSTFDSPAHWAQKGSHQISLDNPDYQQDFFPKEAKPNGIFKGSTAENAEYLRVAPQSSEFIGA
UniProt P00533, with tags, fused parts or gaps limits assumed, stated change not applied: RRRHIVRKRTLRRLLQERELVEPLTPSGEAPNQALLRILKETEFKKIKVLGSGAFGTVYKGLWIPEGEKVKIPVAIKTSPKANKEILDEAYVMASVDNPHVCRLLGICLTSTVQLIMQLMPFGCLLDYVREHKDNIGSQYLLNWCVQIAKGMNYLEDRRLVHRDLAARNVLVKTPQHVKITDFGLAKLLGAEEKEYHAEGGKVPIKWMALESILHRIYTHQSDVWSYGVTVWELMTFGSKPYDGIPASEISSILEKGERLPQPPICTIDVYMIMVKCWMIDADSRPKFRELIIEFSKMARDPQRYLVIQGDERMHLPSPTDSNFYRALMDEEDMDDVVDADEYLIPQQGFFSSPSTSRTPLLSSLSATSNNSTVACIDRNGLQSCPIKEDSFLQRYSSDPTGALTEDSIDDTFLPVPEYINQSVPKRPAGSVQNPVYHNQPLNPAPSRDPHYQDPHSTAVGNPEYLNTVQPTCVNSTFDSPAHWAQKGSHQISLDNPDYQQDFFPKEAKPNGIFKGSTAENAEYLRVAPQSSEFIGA

In patent publication US20250034165A1, “COMPOUND CONTAINING CYCLOALKYL OR HALOALKYL” (CHIA TAI TIANQING PHARMACEUTICAL GROUP CO., LTD., priority 2021, published 2025):

How the values were obtained:
EGFR (L858R/T790M) = EGFR (L858R/T790M) (Homo sapiens (Human), UniProt P00533, L858R/T790M); assay: Inhibitory activity for EGFR (L858R/T790M) kinase; details: read-out: EGFR(L858R/T790M) (IC50); ATP 5 μM
Procedure: A 50 ng/μL EGFR (L858R/T790M, Carna) stock solution was diluted with a kinase buffer (50 mM HEPES, 10 mM MgCl2, 2 mM DTT, 1 mM EGTA, 0.01% Tween 20), and 6 μL of 1.67× working solution at 0.004175 ng/μL (final concentration: 0.0025 ng/μL) was added to each well. Different compounds dissolved in DMSO were added to wells using a nanoliter pipettor, resulting in the final concentrations of the compounds of 10 nM to 0.0024 nM (4-fold gradient, 7 concentrations in total), and blank control wells (without enzyme) and negative control wells (with enzyme, plus vehicle DMSO) were set, 2 replicate wells for each concentration. After enzyme was reacted with the compound or vehicle for 30 min, 5×ATP at 25 μM (final concentration: 5 μM, Sigma) prepared with a kinase buffer was mixed with 5× substrate at 0.5 μM (final concentration: 0.1 μM, ULight-poly GT, PerkinElmer) at a ratio of 1:1 (v:v), and the mixture was added to each well at 4 μL/well. After being sealed with a film, the plate was incubated at room temperature for 2 h, and then 5 μL of 4×EDTA at 40 mM (final concentration: 10 mM) was added to each well. After the plate was incubated for 5 min at room temperature, 5 μL of 4× detection reagent at 8 nM (final concentration: 2 nM, Eu-anti-phospho-tyrosine antibody, PerkinElmer) was added to each well. After being incubated at room temperature for 1 h, the plate was read using a PerkinElmer Envision multi-mode microplate reader (excitation: 320 nm, emission: 665 nm), and IC50 was calculated by four-parameter fitting.

EGFR (WT) = EGFR (WT) (Homo sapiens (Human), UniProt P00533); assay: Inhibitory activity for EGFR (WT) kinase; details: read-out: EGFR(WT) (IC50); ATP 5 μM
Procedure: (§1) A 50 ng/μL EGFR (WT, Carna) stock solution was diluted with a kinase buffer (50 mM HEPES, 10 mM MgCl2, 2 mM DTT, 1 mM EGTA, 0.01% Tween 20), and 6 μL of 1.67× working solution at 0.005 ng/μL (final concentration: 0.003 ng/μL) was added to each well. Different compounds dissolved in DMSO were added to the wells using a nanoliter pipettor, resulting in the final concentrations of the compounds of 100 nM to 0.0244 nM (4-fold gradient for 7 concentrations in total), and blank control wells (without enzyme) and negative control wells (with enzyme, plus vehicle DMSO) were set, 2 replicate wells for each concentration. After enzyme was reacted with the compound or vehicle for 30 min, 5×ATP at 25 μM (final concentration: 5 μM, Sigma) prepared with a kinase buffer was mixed with 5× substrate at 0.5 μM (final concentration: 0.1 μM, ULight-poly GT, PerkinElmer) at a ratio of 1:1 (v:v), and the mixture was added to each well at 4 μL/well. After being sealed with a film, the plate was incubated at room temperature for 2 h, and then 5 μL of 4×EDTA at 40 mM (final concentration: 10 mM) was added to each well. After the plate was incubated for 5 min at room temperature, 5 μL of 4× detection reagent at 8 nM (final concentration: 2 nM, Eu-anti-phospho-tyrosine antibody, PerkinElmer) was added to each well. After being incubated at room temperature for 1 h, the plate was read using a PerkinElmer Envision multi-mode microplate reader (excitation: 320 nm, emission: 665 nm), and IC50 was calculated by four-parameter fitting.

[1] = molecular target: EGFR (d746-750 (d19)/T790M) (Homo sapiens (Human), UniProt P00533, DEL746-750/T790M); assay: Inhibitory activity for EGFR (d746-750 (d19)/T790M) kinase; details: read-out: EGFR(d19/T790M) (IC50); ATP 5 μM
Procedure: 1.3 Screening for Inhibitory Activity for EGFR (d746-750 (d19)/T790M) Kinase
as §1, with “(d746-750/T790M,” for “(WT,”, “10” for “100”, “0.0024” for “0.0244”

SMILES	IC50 (EGFR (L858R/T790M)) [nM]	IC50 (EGFR (WT)) [nM]	IC50 [1] [nM]
Cc1cc2cc(n1)-c1cnn(C)c1OCCC[C@@H](C1CC1)CN1C(=NC2=O)Nc2ccc(CN3CCN(C)CC3)cc21	0.029	2.5	0.016
Cc1cc2cc(n1)-c1cnn(C3CC3)c1OCCC[C@@H](C)CN1C(=NC2=O)Nc2ccc(NC3CCN(C)CC3)cc21	0.027	0.59	0.019
Cc1cc2cc(n1)-c1cnn(C3CC3)c1OCCC[C@@H](C)CN1C(=NC2=O)Nc2cc(NC3COC3)ccc21	0.068	2.8	0.037
Cc1cc2cc(n1)-c1cnn(C)c1OCCC[C@@H](C1CC1)CN1C(=NC2=O)Nc2cc(NC3COC3)ccc21	0.022	0.933	0.011
Cc1cc2cc(n1)-c1cnn(C)c1OCCC[C@@H](C1CC1)CN1C(=NC2=O)Nc2cc(NC(C)C3COC3)ccc21 (single isomer, unassigned)	0.066	2.1	0.014
CCN(CC)CCNc1ccc2c(c1)N1C[C@H](C3CC3)CCCOc3c(cnn3C)-c3cc(cc(C)n3)C(=O)N=C1N2	0.017	1.6	0.013
CNCCNc1ccc2c(c1)N1C[C@H](C3CC3)CCCOc3c(cnn3C)-c3cc(cc(C)n3)C(=O)N=C1N2	0.016	0.64	0.014
Cc1cc2cc(n1)-c1cnn(C)c1OCCC[C@@H](CC1CC1)CN1C(=NC2=O)Nc2cc(NC3COC3)ccc21	0.51	> 10	0.047
